Source: PubChem BioAssay (NCI)
Several values for one entry are separate records, joined by “and”; a condition that tells them apart may be missing. Identical values can stand only once. Only a part is listed here, and it is no random draw. Some compounds were tested as several samples or in several runs, with calls that do not always agree. Activity calls are given as the source filed them. Rule as the data show it: active = growth inhibition above about 70%; inactive = the rest.

Key:
[1] = NCI Yeast Anticancer Drug Screen. Data for the rad50 strain (AID 155);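 also: 0% = growth of vehicle-only cultures of the same strain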; conditions: S. cerevisiae rad50 strain growth inhibition, hits give high values
[2] = NCI Yeast Anticancer Drug Screen. Data for the mec2-1 strain (AID 157); conditions: S. cerevisiae mec2-1 strain, hits give high values
[3] = NCI Yeast Anticancer Drug Screen. Data for the sgs1 mgt1 strain (AID 161);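 also: 0% = growth of cultures given vehicle only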; conditions: S. cerevisiae sgs1 mgt1 strain, hits give high values
[4] = NCI Yeast Anticancer Drug Screen. Data for the cln2 rad14 strain (AID 165);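 also: 0% = growth equal to vehicle treated cultures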; conditions: S. cerevisiae cln2 rad14 strain, hits give high values
[5] = NCI Yeast Anticancer Drug Screen. Data for the bub3 strain (AID 167); conditions: S. cerevisiae bub3 mutant strain, hits give high values
[6] = NCI Yeast Anticancer Drug Screen. Data for the mlh1 rad18 strain (AID 175); conditions: S. cerevisiae mlh1 rad18 strain growth inhibition, hits give high values
[7] = at 5.0 µM (retest, dose inferred, filed as 0.5)
[8] = at 50.0 µM (retest, dose inferred, filed as 5.0)

Measured: growth inhibition

CCCCCCCCCC(CCCCCCCCC)NCC(C)O (stereo unspecified)
inactive: [1]; [7] 4% | [1]; at 50.0 µM 29.1% | [2]; [7] 24% | [2]; at 50.0 µM 5.6% | [3]; [7] 15% | [3]; at 50.0 µM 12.8% | [4]; [7] -2% | [4]; at 50.0 µM 25.4% | [5]; [7] 1% | [5]; at 50.0 µM 3.55% | [6]; [7] 42% | [6]; at 50.0 µM 14.8%
active: [1]; [8] 100% | [2]; [8] 100% | [3]; [8] 100% | [4]; [8] 99% | [5]; [8] 99% | [6]; [8] 100%

ClCCN(CCCl)c1ccc(CN2CCCCC2)cc1
inactive: [1]; at 50.0 µM 64.2% | [2]; [7] 55% | [2]; at 50.0 µM 22.8% | [4]; [7] 65% | [4]; at 50.0 µM 57.8% | [5]; at 50.0 µM 64.7% | [6]; at 50.0 µM 69.7%
active: [1]; [7] 81% | [1]; [8] 98% | [2]; [8] 98% | [3]; [7] 78% | [3]; [8] 98% | [3]; at 50.0 µM 73.7% | [4]; [8] 96% | [5]; [7] 73% | [5]; [8] 97% | [6]; [7] 73% | [6]; [8] 95%

CC1CCCc2c1cc(N)c1ccccc21 (stereo unspecified)
inactive: [1]; [7] 18% | [1]; [8] 16% | [2]; [7] 9% | [2]; [8] 14% | [2]; at 50.0 µM 67.1% | [3]; [7] 37% | [3]; [8] 10% | [4]; [7] 12% | [4]; [8] -2% | [4]; at 50.0 µM 2.25% | [5]; [7] 33% | [5]; [8] 49% | [5]; at 50.0 µM 48.4% | [6]; [7] 36% | [6]; [8] 42%
active: [1]; at 50.0 µM 85.6% | [3]; at 50.0 µM 90.2% | [6]; at 50.0 µM 89.4%

COc1cc([N+](=O)[O-])c([N+](=O)[O-])cc1N
inactive: [1]; [7] -22% | [1]; [8] 3% | [1]; at 50.0 µM 60.2% | [2]; [7] 2% | [2]; [8] 2% | [3]; [7] -11% | [3]; [8] -4% | [3]; at 50.0 µM 57.5% | [4]; [7] -33% | [4]; [8] -19% | [4]; at 50.0 µM 5.45% | [5]; [7] 0% | [5]; [8] 5% | [5]; at 50.0 µM 38.1% | [6]; [7] -8% | [6]; [8] -4% | [6]; at 50.0 µM 45%
active: [2]; at 50.0 µM 71.8%

O=C(Nc1ccc([N+](=O)[O-])cc1)c1cc([N+](=O)[O-])cc([N+](=O)[O-])c1Cl
active: [1]; [8] 90% | [1]; at 50.0 µM 91.7% | [2]; [8] 75% | [2]; at 50.0 µM 84.4% | [3]; [8] 73% | [3]; at 50.0 µM 93.3% | [4]; [8] 70% | [4]; at 50.0 µM 79.7% | [5]; [8] 90% | [5]; at 50.0 µM 84.2% | [6]; [8] 92% | [6]; at 50.0 µM 93%
inactive: [1]; [7] 18% | [2]; [7] -12% | [3]; [7] -4% | [4]; [7] 1% | [5]; [7] -2% | [6]; [7] 6%

Cc1cc(C)nc(NP(=O)(Oc2ccccc2)Oc2ccccc2)n1
inactive: [1]; at 50.0 µM -6.85% | [2]; at 50.0 µM -8.85% | [3]; at 50.0 µM 12.9% | [4]; at 50.0 µM -23.2% | [5]; at 50.0 µM 6.45% | [6]; at 50.0 µM -13.7%

Cc1ccc2c(c1)C[P+](c1ccccc1)(c1ccccc1)CCC2C (stereo unspecified)
inactive: [1]; at 50.0 µM 21.1% | [2]; at 50.0 µM 28.9% | [3]; at 50.0 µM -6.05% | [4]; at 50.0 µM -34.6% | [5]; at 50.0 µM 5.2% | [6]; at 50.0 µM -13.6%

CC(=N/Nc1ccc([N+](=O)[O-])cc1[N+](=O)[O-])/C(C)=N/Nc1ccc([N+](=O)[O-])cc1[N+](=O)[O-]
inactive: [1]; at 50.0 µM 0.65% | [2]; at 50.0 µM 22.6% | [3]; at 50.0 µM -17.8% | [4]; at 50.0 µM -6.85% | [5]; at 50.0 µM -0.7% | [6]; at 50.0 µM 5.4%

c1ccc([As+](c2ccccc2)(c2ccccc2)c2ccccc2)cc1
inactive: [1]; at 50.0 µM 26.1% | [2]; at 50.0 µM 2.4% | [3]; at 50.0 µM 11.4% | [4]; at 50.0 µM -0.05% | [5]; at 50.0 µM -1.8% | [6]; at 50.0 µM 7.25%

CN(C)C(=O)Oc1ccc(/C=N/NC(N)=S)nc1
inactive: [1]; at 50.0 µM 33.4% | [2]; at 50.0 µM 31.4% | [3]; at 50.0 µM 23.4% | [4]; at 50.0 µM 5.3% | [5]; at 50.0 µM 29.6% | [6]; at 50.0 µM 33.3%

CC(C)(C)[Si](C)(C)OC(=O)N(CCCl)CCCl
inactive: [1]; at 50.0 µM 9.35% | [2]; at 50.0 µM 7.55% | [3]; at 50.0 µM 13.2% | [4]; at 50.0 µM 9.65% | [5]; at 50.0 µM -31.5% | [6]; at 50.0 µM 8.55%

Clc1ccnc2ccc(-c3ccccc3)cc12
active: [1]; at 50.0 µM 99.4% | [2]; at 50.0 µM 99.5% | [3]; at 50.0 µM 99.6% | [4]; at 50.0 µM 97.8% | [5]; at 50.0 µM 74% | [6]; at 50.0 µM 99.4%

O=P(Cl)(Oc1ccccc1)c1ccccc1 (stereo unspecified)
inactive: [1]; at 50.0 µM 25.1% | [2]; at 50.0 µM 7.35% | [3]; at 50.0 µM 4.2% | [4]; at 50.0 µM 9.15% | [5]; at 50.0 µM 14.3% | [6]; at 50.0 µM 0.9%

CC1(CCl)COP(=O)(n2cnc3ccccc32)OC1 (stereo unspecified)
inactive: [1]; at 50.0 µM 10.6% | [2]; at 50.0 µM 24.5% | [3]; at 50.0 µM 19.1% | [4]; at 50.0 µM -5.55% | [5]; at 50.0 µM 14% | [6]; at 50.0 µM 20.8%

NC(CO)C(=O)O (stereo unspecified)
inactive: [1]; at 50.0 µM -18.2% and -1.95% | [2]; at 50.0 µM -3.05% and -0.35% | [3]; at 50.0 µM -9.9% and 7.05% | [4]; at 50.0 µM -3% and 1.85% | [5]; at 50.0 µM 7.35% and 15.9% | [6]; at 50.0 µM -3.7% and 5.3%

CCN(CC)P1OCC(C)O1 (stereo unspecified)
inactive: [1]; at 50.0 µM -7.8% | [2]; at 50.0 µM -36% | [3]; at 50.0 µM -16.7% | [4]; at 50.0 µM -35.6% | [5]; at 50.0 µM -6.2% | [6]; at 50.0 µM -7.6%

O=[N+]([O-])c1cc([N+](=O)[O-])c(O)c([N+](=O)[O-])c1
inactive: [1]; at 50.0 µM 5.25% and 23.3% | [2]; at 50.0 µM 10.6% and 28.5% | [3]; at 50.0 µM -3.8% and 18.9% | [4]; at 50.0 µM 4% and -8.25% | [5]; at 50.0 µM -0.55% and 0.4% | [6]; at 50.0 µM 17% and 52%

O=P1(N(CCCl)CCCl)OCCCN1Br (stereo unspecified)
inactive: [1]; at 50.0 µM 4.2% | [2]; at 50.0 µM -6.1% | [3]; at 50.0 µM 8.25% | [4]; at 50.0 µM 15.8% | [5]; at 50.0 µM -2.3% | [6]; at 50.0 µM 5.45%

CCOP1(=O)N=C(NC2=NC(C(F)(F)F)(C(F)(F)F)OC(C(F)(F)F)(C(F)(F)F)O2)N(C)C1(C)C (stereo unspecified)
inactive: [1]; at 50.0 µM 3.4% | [2]; at 50.0 µM -12.1% | [3]; at 50.0 µM -4.45% | [4]; at 50.0 µM 12.6% | [5]; at 50.0 µM -8.25% | [6]; at 50.0 µM 3.7%

CN(C)CCC12CCCCC1CCc1ccccc12 (stereo unspecified)
inactive: [1]; at 50.0 µM 21.5% | [2]; at 50.0 µM 3.9% | [3]; at 50.0 µM 10% | [4]; at 50.0 µM 1.5% | [5]; at 50.0 µM -0.55% | [6]; at 50.0 µM 18.4%

CCCCOP(=O)(OCCCC)N1CCCC1C(=O)O (stereo unspecified)
inactive: [1]; at 50.0 µM -1.35% | [2]; at 50.0 µM -7.3% | [3]; at 50.0 µM -8.85% | [4]; at 50.0 µM 8.6% | [5]; at 50.0 µM -21.3% | [6]; at 50.0 µM -12.6%
